Data taken from PubChem BioAssay AID1347120 (National Center for Advancing Translational Sciences (NCATS), 2019).
The entries are a selection whose mix differs from that of the whole data set. Results filed as inconclusive are left out. The source made the active and inactive calls. The call rests on the fitted dose curve; in most records, active means well fitted activation curve with a large enough effect; inconclusive means small, poorly fitted or top-dose-only effect; inactive means no such curve, though single readings can be large or run the other way.

assay: qHTS for Suppressors of FUS Proteinopathy: Primary screen using FUS-linked yeast assay;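 further: plate controls were DMSO vehicle for no effect and reference control for full effect; nearly all actives have a fitted effect of over 55% in size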; settings: S. cerevisiae FUS-expressing, OD600, 24 h; at 76.6 µM (top of the series)
Description: Several widespread neurodegenerative diseases, including Alzheimer disease, Huntington disease, Frontotemporal Lobar Degeneration (FTLD) and Amyotrophic Lateral Sclerosis (ALS), share a common pathological feature, namely accumulation of specific protein aggregates in diseased tissue. These diseases which is associated with protein misfolding (proteinopathies) have become increasingly problematic as the population ages and life expectancies are extended. Most proteinopathies are currently incurable, a situation confounded by the fact that the basis of neurodegeneration is generally poorly understood. There exists urgent and significant need to find therapeutics that can inhibit the toxicity associated with protein aggregation. A novel approach to understand the underlying mechanisms of neurodegenerative diseases has recently emerged in which the disease conditions are modeled in the yeast (Saccharomyces cerevisiae), a tractable eukaryotic organism with conserved protein quality control mechanisms. Yeast offers quick and reliable genetic manipulations and can be easily tailored to high-throughput screening (HTS).
For this project, a yeast model of the FUS proteinopathies (a spectrum of neurodegenerative diseases that include ALS and a subtype of FTLD) was generated and employed. The cytoplasmic accumulation of the DNA/RNA-binding protein FUS (also known as TLS) is causative to both familial and sporadic forms of ALS and FTLD. This yeast model recapitulates neuronal pathology by showing severe cytotoxicity associated with cytoplasmic accumulation of FUS aggregates and a specific interaction between FUS and TDP-43, another ALS-associated protein. […] Specifically, the cellular accumulation of misfolded FUS that disrupts RNA homeostasis in both yeast and higher eukaryotes. This model was validated to be suitable for quantitative HTS (qHTS) use for finding genetic or chemical factors that restore growth. […] Identified compounds that inhibits FUS-yeast toxicity is flagged, re-acquired, and validated for further investigation and optimization.
NIH Chemical Genomics Center [NCGC]
NIH Molecular Libraries Probe Production Centers Network [MLPCN]
Assay Submitter (PI): Frank Shewmaker PhD, Uniformed Services University of the Health Sciences
Compound CP55940 was used as the positive control. Column 1 was treated with CP55940 titration from 92uM (final concentration, 1:2 dilution), while Column 2 was treated with top dose 92uM. Columns 3 and 4 were treated with DMSO only as negative control to assess background and noise signal.
Four hundred fifty microliter of cultured yeast (in 20mL rich medium) provided by Dr. Shewmaker lab was incubated at 30C at 99% humidity for 3hr. The culture was then spun down at 4000rpm for 5min and the cell pellet was resuspended in 2mL of Sdmin Media + ALU(330) + 2.5% Raffinose. One hundred microliter of the suspension was added to 900uL of water and OD of the solution was obtained. Twenty mL of responding medium (provided by Shewmaker lab) + 2.5% raffinose was added to ensure cell density of 0.1; the solution was incubated overnight. Working cell solution (FUS-yeast in Sdmi + Sdmi + 1X ALU + 2% galactose media) was prepared (final OD at 0.005) and 3uL was dispensed in a 1536-well Aurora high based clear bottom assay plates. Controls and library compounds (at various final concentrations from 40uM to 0.32uM) were added using a 1536-well pin array using the Kalypsys pin-tool. The plates were then incubated for 24hrs in a cell-culture incubator (30C; 99% humidity). Absorbance at 600nm was then read using the PerkinElmer ViewLux plate reader.

Compound	growth rescue (activation)
CCc1ccc(OP(C)(=O)O)cc1	inactive: -4.43%
CP(=O)(Nc1ccccn1)Oc1ccccc1 (centres undefined)	inactive: 19.1%
COc1ccccc1OP(C)(=O)Nc1ccc(C)cc1C (centres undefined)	inactive: 9.83%
COc1ccccc1OP(C)(=O)Nc1ccc(Br)cc1 (centres undefined)	inactive: 13.6%
CN(C)CCOC(=O)C(O)(c1ccccc1)C1CCCC1 (centres undefined)	inactive: -25.4%
COc1ccc(OP(C)(=O)Nc2ccccn2)cc1 (centres undefined)	inactive: 6.98%
CP(=O)(OCCOc1ccccc1)OCCOc1ccccc1	inactive: -13.5%
CP(=O)(Nc1ccc(Cl)cc1Cl)Oc1ccccc1 (centres undefined)	inactive: -0.711%
Cc1cc(C)cc(OP(C)(=O)Nc2cccc(C(F)(F)F)c2)c1 (centres undefined)	inactive: 30.6%
COc1ccc(OP(C)(=O)Nc2ccccc2Br)cc1 (centres undefined)	inactive: 4.53%
COc1ccccc1OP(C)(=O)Nc1ccc(C)c(C)c1 (centres undefined)	inactive: -12%
CCN(CC)CCCOC(=O)C(O)(c1ccccc1)C1CCCCC1 (centres undefined)	inactive: -2.08%
Cc1c([N+](=O)[O-])cc([N+](=O)[O-])c(Br)c1[N+](=O)[O-]	inactive: 15.9%
CCCCCOc1ccc(NP(C)(=O)Oc2ccc(Cl)cc2Cl)cc1 (centres undefined)	inactive: 33.2%
CP(=O)(Nc1ccccc1)Oc1ccc(F)cc1 (centres undefined)	inactive: 3%
COc1ccc(OP(C)(=O)Nc2ccc(SC(F)(F)F)cc2)cc1 (centres undefined)	inactive: 30.7%
CCOC(=O)c1ccc(NP(C)(=O)Oc2ccc(F)cc2)cc1 (centres undefined)	inactive: 11.9%
CP(=O)(Nc1ccccc1F)Oc1ccccc1 (centres undefined)	inactive: 2.35%
CP(=O)(Nc1ccc2c(c1)OCCO2)Oc1ccccc1 (centres undefined)	inactive: 13.6%
O=[N+]([O-])c1cc([N+](=O)[O-])c(C(F)(F)F)c([N+](=O)[O-])c1O	inactive: 1.05%
Cc1ccccc1NP(C)(=O)Nc1ccccc1C	inactive: -1.57%
CP(=O)(Nc1ccc(SC(F)(F)F)cc1)Oc1ccc(F)cc1 (centres undefined)	inactive: 4.14%
CCOP(C)(=S)SCC(=O)NC(C)(CC)C(=O)O (centres undefined)	inactive: 8.57%
Cc1cc(-c2cccc3ccccc23)c(C)cn1.O=[N+]([O-])c1cc([N+](=O)[O-])c(O)c([N+](=O)[O-])c1	inactive: 13.6%
O=[N+]([O-])c1ccc(OP2(=O)COCCO2)cc1 (centres undefined)	inactive: 3.66%
Cc1c(C(c2ccc3c(c2)OCO3)c2c(C)n(C)n(-c3ccccc3)c2=O)c(=O)n(-c2ccccc2)n1C.O=[N+]([O-])c1cc([N+](=O)[O-])c(O)c([N+](=O)[O-])c1	inactive: -31%
COc1ccc(OP(C)(=O)Nc2cccc(Br)c2)cc1 (centres undefined)	inactive: 6.03%
COc1ccc(NP(C)(=O)Oc2ccccc2OC)cc1 (centres undefined)	inactive: 1.34%
CN(C)CCOC(=O)C(O)(c1ccccc1)C1CCCCC1 (centres undefined)	inactive: -13.9%
